# Laboratory results: publication PMC10797628
# Protein sequences, listed by entry. Tags and fused reporters are not part of them.
# UniProt P28221, whole entry V190I: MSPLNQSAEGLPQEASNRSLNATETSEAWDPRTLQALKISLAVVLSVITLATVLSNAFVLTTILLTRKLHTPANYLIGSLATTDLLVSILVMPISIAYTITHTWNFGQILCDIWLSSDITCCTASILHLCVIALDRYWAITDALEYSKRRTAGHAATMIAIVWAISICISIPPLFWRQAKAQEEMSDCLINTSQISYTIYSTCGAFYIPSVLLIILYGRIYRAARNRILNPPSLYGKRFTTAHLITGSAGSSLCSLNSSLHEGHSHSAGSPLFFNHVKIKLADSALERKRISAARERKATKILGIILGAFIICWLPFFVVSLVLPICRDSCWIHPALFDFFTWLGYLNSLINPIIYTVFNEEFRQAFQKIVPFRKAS
# UniProt P28221, whole entry Y197F: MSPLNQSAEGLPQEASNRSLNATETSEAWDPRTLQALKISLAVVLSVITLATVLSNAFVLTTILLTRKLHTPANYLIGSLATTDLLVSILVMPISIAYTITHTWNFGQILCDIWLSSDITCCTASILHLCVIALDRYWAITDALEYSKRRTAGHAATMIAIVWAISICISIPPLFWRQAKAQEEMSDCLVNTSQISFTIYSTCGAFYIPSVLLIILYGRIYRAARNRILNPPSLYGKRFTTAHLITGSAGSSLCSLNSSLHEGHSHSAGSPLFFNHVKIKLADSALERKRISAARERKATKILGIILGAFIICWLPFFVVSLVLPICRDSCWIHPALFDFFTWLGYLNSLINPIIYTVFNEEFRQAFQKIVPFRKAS
# UniProt P28221, whole entry Y197A: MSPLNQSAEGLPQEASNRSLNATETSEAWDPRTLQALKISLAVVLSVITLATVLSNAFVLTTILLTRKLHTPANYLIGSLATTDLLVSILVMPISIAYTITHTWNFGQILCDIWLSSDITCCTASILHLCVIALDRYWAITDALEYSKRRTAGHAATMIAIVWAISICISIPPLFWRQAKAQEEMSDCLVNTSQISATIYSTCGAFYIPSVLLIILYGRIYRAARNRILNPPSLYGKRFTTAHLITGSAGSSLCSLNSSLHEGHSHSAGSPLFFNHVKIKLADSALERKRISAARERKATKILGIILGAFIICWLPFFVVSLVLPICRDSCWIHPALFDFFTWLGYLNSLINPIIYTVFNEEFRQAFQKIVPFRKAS
# UniProt P28221, whole entry S201A: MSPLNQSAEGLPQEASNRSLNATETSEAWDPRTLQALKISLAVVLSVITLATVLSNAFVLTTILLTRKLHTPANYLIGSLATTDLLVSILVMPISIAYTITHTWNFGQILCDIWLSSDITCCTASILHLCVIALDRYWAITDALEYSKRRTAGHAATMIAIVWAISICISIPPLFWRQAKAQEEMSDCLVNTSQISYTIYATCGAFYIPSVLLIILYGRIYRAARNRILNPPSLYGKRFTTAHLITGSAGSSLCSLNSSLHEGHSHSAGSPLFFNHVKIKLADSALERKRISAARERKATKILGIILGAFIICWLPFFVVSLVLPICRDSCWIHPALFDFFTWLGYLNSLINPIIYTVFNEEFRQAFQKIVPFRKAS
# UniProt P28221, whole entry T342N: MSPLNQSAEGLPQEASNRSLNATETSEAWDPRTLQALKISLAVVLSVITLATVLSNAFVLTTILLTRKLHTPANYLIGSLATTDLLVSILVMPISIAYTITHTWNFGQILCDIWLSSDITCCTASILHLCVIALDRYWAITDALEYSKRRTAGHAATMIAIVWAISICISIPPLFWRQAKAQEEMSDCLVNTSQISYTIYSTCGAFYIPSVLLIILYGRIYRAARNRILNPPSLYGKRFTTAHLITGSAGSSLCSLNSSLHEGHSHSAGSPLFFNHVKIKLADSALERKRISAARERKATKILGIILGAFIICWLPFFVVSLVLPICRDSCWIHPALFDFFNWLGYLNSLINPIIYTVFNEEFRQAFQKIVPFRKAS
# UniProt P08908, whole entry S199A: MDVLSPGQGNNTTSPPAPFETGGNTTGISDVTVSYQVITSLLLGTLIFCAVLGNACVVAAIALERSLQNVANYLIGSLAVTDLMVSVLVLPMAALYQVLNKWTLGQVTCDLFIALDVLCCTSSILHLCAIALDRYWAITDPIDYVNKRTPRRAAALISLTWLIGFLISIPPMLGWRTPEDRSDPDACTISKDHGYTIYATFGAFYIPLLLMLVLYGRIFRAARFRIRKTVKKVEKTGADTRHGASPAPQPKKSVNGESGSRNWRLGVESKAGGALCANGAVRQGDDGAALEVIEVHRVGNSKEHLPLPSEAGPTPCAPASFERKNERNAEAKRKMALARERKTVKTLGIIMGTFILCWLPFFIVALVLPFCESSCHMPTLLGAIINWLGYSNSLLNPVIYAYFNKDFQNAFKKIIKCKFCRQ
# UniProt P08908, whole entry N386T: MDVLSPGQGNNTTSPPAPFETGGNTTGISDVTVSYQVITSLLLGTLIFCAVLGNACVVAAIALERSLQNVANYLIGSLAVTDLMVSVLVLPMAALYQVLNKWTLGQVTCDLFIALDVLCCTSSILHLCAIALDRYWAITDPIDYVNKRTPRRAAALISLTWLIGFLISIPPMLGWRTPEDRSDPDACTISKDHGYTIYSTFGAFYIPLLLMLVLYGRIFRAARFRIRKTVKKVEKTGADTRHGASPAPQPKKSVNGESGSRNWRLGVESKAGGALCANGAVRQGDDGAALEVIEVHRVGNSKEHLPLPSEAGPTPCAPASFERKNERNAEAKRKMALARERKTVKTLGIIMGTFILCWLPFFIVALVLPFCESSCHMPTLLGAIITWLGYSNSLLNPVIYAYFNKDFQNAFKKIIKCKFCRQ
# UniProt P08908, whole entry V117I: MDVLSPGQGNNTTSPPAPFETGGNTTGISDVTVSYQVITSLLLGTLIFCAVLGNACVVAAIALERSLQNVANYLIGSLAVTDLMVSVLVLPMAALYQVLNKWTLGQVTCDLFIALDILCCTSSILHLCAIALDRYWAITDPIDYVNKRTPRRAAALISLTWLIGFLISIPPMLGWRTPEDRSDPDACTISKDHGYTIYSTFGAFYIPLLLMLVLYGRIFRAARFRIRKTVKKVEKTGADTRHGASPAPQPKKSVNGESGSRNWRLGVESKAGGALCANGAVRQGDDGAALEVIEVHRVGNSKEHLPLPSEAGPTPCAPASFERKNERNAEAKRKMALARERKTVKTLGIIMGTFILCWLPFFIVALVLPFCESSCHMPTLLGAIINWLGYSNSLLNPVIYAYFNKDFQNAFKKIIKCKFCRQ
# UniProt P08908, whole entry Y195F: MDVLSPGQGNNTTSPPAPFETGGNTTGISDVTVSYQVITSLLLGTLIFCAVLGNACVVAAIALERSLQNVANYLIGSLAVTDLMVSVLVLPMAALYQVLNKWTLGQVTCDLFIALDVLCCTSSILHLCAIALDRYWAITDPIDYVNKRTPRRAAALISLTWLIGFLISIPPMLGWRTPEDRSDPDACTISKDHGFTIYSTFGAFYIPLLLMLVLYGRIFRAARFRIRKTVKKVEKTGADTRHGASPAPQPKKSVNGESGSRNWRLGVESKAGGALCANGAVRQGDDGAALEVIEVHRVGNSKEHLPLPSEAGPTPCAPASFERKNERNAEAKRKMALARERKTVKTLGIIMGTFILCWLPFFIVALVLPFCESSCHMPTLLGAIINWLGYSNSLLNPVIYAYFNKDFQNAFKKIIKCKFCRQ
# UniProt P08908, whole entry Y195A: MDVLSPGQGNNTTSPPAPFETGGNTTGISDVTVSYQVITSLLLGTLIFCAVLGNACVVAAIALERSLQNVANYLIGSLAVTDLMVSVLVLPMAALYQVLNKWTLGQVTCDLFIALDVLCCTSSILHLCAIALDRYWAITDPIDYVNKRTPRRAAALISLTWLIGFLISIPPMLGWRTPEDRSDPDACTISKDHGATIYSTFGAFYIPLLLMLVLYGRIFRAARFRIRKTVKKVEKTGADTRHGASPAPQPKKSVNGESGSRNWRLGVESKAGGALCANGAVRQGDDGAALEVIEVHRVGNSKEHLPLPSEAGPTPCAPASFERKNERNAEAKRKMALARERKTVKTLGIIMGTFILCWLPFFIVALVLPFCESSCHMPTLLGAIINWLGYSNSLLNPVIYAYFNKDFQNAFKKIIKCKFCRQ
# UniProt P28222, whole entry S212A: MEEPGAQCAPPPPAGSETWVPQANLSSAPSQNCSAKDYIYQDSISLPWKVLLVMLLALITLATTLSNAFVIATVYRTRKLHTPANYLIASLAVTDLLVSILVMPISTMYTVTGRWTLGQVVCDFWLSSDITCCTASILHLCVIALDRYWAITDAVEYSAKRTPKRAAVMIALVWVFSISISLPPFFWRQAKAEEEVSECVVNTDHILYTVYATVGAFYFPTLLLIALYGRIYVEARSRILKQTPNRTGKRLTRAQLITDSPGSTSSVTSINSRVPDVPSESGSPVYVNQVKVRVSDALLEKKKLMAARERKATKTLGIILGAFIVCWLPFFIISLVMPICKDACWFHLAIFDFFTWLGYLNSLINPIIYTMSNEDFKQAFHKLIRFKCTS
# UniProt P28222, whole entry T355N: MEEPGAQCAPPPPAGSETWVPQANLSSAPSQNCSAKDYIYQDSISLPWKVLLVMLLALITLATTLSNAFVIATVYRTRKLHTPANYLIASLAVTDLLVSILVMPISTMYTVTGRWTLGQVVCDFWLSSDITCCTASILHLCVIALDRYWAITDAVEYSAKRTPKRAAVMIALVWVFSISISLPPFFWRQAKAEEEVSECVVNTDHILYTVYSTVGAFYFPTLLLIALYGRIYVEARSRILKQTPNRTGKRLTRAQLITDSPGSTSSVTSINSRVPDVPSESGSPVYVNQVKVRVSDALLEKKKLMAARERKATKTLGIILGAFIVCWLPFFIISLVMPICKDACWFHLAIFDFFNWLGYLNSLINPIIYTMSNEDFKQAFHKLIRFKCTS
# UniProt P28222, whole entry V201I: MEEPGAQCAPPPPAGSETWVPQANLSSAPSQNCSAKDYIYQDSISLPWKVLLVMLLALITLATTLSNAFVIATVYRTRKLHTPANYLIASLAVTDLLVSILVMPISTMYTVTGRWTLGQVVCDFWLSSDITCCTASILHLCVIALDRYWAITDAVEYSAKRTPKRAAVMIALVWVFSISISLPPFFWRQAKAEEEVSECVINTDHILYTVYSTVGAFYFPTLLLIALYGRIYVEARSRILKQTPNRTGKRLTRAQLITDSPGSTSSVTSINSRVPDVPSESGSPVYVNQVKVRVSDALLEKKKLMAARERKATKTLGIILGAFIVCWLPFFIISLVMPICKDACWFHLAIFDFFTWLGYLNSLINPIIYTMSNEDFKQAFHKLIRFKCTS
# UniProt P28222, whole entry: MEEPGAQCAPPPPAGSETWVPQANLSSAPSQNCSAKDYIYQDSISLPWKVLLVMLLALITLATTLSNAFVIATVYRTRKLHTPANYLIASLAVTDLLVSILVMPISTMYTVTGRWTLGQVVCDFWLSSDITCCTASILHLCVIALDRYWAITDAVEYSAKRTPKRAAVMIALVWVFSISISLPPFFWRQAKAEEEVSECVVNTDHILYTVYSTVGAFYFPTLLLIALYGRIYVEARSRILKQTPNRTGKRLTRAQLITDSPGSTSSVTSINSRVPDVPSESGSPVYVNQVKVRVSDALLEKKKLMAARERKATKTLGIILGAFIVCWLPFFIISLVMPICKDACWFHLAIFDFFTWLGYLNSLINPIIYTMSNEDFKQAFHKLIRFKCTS
# Key:
# [1] = target: V45.52I 5-HT1D receptor (Homo sapiens, UniProt P28221, V190I); assay: Radioligand binding, V45.52I 5-HT1D; details: read-out: KD (nM) 5-HT1D V45.52I; saturation binding
# [2] = target: S5.42A 5-HT1A receptor (Homo sapiens, UniProt P08908, S199A); assay: Radioligand binding, S5.42A 5-HT1A; details: read-out: KD (nM) 5-HT1A S5.42A; saturation binding
# [3] = target: Y5.38F 5-HT1D receptor (Homo sapiens, UniProt P28221, Y197F); assay: Radioligand binding, Y5.38F 5-HT1D; details: read-out: KD (nM) 5-HT1D Y5.38F; saturation binding
# [4] = target: N7.39T 5-HT1A receptor (Homo sapiens, UniProt P08908, N386T); assay: Radioligand binding, N7.39T 5-HT1A; details: read-out: KD (nM) 5-HT1A N7.39T; saturation binding
# [5] = target: V3.33I 5-HT1A receptor (Homo sapiens, UniProt P08908, V117I); assay: Radioligand binding, V3.33I 5-HT1A; details: read-out: KD (nM) 5-HT1A V3.33I; saturation binding
# [6] = target: Y5.38F 5-HT1A receptor (Homo sapiens, UniProt P08908, Y195F); assay: Radioligand binding, Y5.38F 5-HT1A; details: read-out: KD (nM) 5-HT1A Y5.38F; saturation binding
# [7] = target: Y5.38A 5-HT1D receptor (Homo sapiens, UniProt P28221, Y197A); assay: Radioligand binding, Y5.38A 5-HT1D; details: read-out: KD (nM) 5-HT1D Y5.38A; saturation binding
# [8] = target: S5.42A 5-HT1D receptor (Homo sapiens, UniProt P28221, S201A); assay: Radioligand binding, S5.42A 5-HT1D; details: read-out: KD (nM) 5-HT1D S5.42A; saturation binding
# [9] = target: Y5.38A 5-HT1A receptor (Homo sapiens, UniProt P08908, Y195A); assay: Radioligand binding, Y5.38A 5-HT1A; details: read-out: KD (nM) 5-HT1A Y5.38A; saturation binding
# [10] = target: T7.39N 5-HT1D receptor (Homo sapiens, UniProt P28221, T342N); assay: Radioligand binding, T7.39N 5-HT1D; details: read-out: KD (nM) 5-HT1D T7.39N; saturation binding
# [11] = target: S5.42A 5-HT1B receptor (Homo sapiens, UniProt P28222, S212A); assay: Radioligand binding, S5.42A 5-HT1B; details: read-out: KD (nM) 5-HT1B S5.42A; saturation binding
# [12] = target: T7.39N 5-HT1B receptor (Homo sapiens, UniProt P28222, T355N); assay: Radioligand binding, T7.39N 5-HT1B; details: read-out: KD (nM) 5-HT1B T7.39N; saturation binding
# [13] = target: V45.52I 5-HT1B receptor (Homo sapiens, UniProt P28222, V201I); assay: Radioligand binding, V45.52I 5-HT1B; details: read-out: KD (nM) 5-HT1B V45.52I; saturation binding
# [14] = target: human 5-HT1B receptor (Homo sapiens, UniProt P28222); assay: Radioligand binding (saturation and competition), WT 5-HT1B; details: read-out: KD of radioligand at 5-HT1B WT; saturation binding
substance,measurement,setting,value
[^3H]5-CT [reference compound],Kd,[1],0.95 ± 0.02 nM
same,Kd,[2],13.2 ± 0.1 nM
same,Kd,[3],3.3 ± 0.2 nM
same,Kd,[4],2.7 ± 0.1 nM
same,Kd,[5],2.5 ± 0.3 nM
same,Kd,[6],5.5 ± 0.2 nM
same,Kd,[7],6.2 ± 0.02 nM
same,Kd,[8],7.6 ± 0.2 nM
same,Kd,[9],6 ± 0.1 nM
same,Kd,[10],0.87 ± 0.2 nM
same,Kd,[11],11.8 ± 0.6 nM
same,Kd,[12],5.6 ± 0.3 nM
same,Kd,[13],5.9 ± 0.4 nM
same,Kd,[14],5.3 ± 0.5 nM
